This assay deals with VEGF165 (UniProt P15692). Briefly: cell-based or functional assay.

Amino acid sequences for entries named in this document (tags omitted). Chains listed by the source or under a name are the forms on record and can include a tag or linker.
UniProt P15692, other isoform, or with tags, fused parts or gaps: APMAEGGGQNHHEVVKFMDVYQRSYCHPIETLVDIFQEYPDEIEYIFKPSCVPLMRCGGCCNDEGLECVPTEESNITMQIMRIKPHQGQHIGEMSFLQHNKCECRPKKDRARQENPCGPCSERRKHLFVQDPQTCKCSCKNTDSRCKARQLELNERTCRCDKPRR

Substance avastin(贝伐单抗) (antibody) returned an HUVEC细胞增殖抑制 EC50 of 0.408 nM.
